“And” between values parts separate entries of the source, which are not always exact repeats. Equal values may be shown once. Read-outs that look alike come from different tables or passages of the source.
Assays:
[1] = test system: human developmental and reproductive toxicity; conditions: cited from earlier work
[2] = Human in vivo PK data: concentration-dose ratio (CDR) and toxicokinetic variability factor (TKVF); parameters: 95% percentile (Conc-dose-ratio): unit not given here;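 further: Literature-pooled human in vivo PK data, plasma, serum or cord blood concentrations per daily dose, weighted by study population size across non-pregnant, pregnant and fetal groups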
[3] = test system: developmental or reproductive toxicity in animal or human; conditions: evidence of developmental or reproductive toxicity in animal or human, irrespective of exposure/dose; ref Supplementary Data Sheet 1; cited from earlier work
[4] = ref [15]; cited from earlier work
rabbits = test system: rabbits; parameters: method as in Supplementary Data Sheet 1; conditions: rabbit studies; ref Supplementary Data Sheet 1; cited from earlier work
rats = conditions: 2 rat studies; ref Supplementary Data Sheet 1; cited from earlier work
[5] = Non-Pregnant, combined (oral+IV)

In the case of `CCN(CC)CCNC(=O)c1cc(Cl)c(N)cc1OC` [Metoclopramide], the “Exposure risk (DART risk classification)” value ([1]; Pharmaceutical, 10 mg/daily, IV, ref Supplementary Data Sheet 1) is given as “Uncertain Risk”, the “Exposure risk (DART risk classification)” value ([1]; Pharmaceutical, 60 mg/daily, oral, ref Supplementary Data Sheet 1) is given as “High Risk” and the “CDR fold difference to non-pregnant” value ([2]; Fetus population) is given as 1.50. For the same compound, the “CDR fold difference to pregnant” value ([2]; Fetus population) was 1.04, the “95% percentile (Conc-dose-ratio)” value ([2]; Foetus, IV) was 0.05 and the “Fold Difference to non-pregnant” value ([2]; Foetus, IV) was 1.50. For the same compound, the “Fold Difference to pregnant” value ([2]; Foetus, IV) was 1.04, the “Mean Conc-dose -ratio” value ([2]; Foetus, IV) was 0.027 uM/(mg/day] and the “CDR fold difference to non-pregnant” value ([2]; Non-Pregnant population (reference)) was 1.00. For the same compound, the “95% percentile (Conc-dose-ratio)” value [2, 5] was 0.05, the “Fold Difference to non-pregnant” value [2, 5] was 1.00 and the “Mean Conc-dose -ratio” value [2, 5] was 0.018 uM/(mg/day]. For the same compound, the “CDR fold difference to non-pregnant” value ([2]; Pregnant population) was 1.45, the “CDR fold difference to pregnant” value ([2]; Pregnant population (reference)) was 1.00 and the “95% percentile (Conc-dose-ratio)” value ([2]; Pregnant, IV) was 0.07. For the same compound, the “Fold Difference to non-pregnant” value ([2]; Pregnant, IV) was 1.45, the “Fold Difference to pregnant” value ([2]; Pregnant, IV) was 1.00 and the “Mean Conc-dose -ratio” value ([2]; Pregnant, IV) was 0.026 uM/(mg/day].

In the case of `Cn1c(=O)c2[nH]cnc2n(C)c1=O` [Theophylline], the “Exposure risk (DART risk classification)” value ([1]; Pharmaceutical, 800 mg/daily, IV, ref Supplementary Data Sheet 1) is given as “High Risk”, the “DART Hazard Call” value [3] is given as “Toxic” and the “CDR fold difference to non-pregnant” value ([2]; female, human, in vivo) is given as 1.58. The “CDR fold difference to pregnant” value ([2]; female, human, in vivo) was 1.00 and the “CDR fold difference to pregnant” value ([2]; human, in vivo) was 0.84.

In the case of `Cc1cc(C(C)(C)C)c(O)c(C(C)(C)C)c1` [Butylated hydroxytoluene (BHT), Butylated hydroxytoluene], the “Exposure risk (DART risk classification)” value ([1]; Cosmetic, aggregate (max 0.8%), dermal, ref Supplementary Data Sheet 1) is listed as “Low Risk”.

For `CCCCC(CC)C(=O)O` (centres unmarked) [2-Ethylhexanoic acid (2-EHA), 2-Ethylhexanoic acid], the Fup [4] is given as 13.16%, the “Exposure risk (DART risk classification)” value [1] is given as “Uncertain” and the “DART Hazard Call” value [3] is given as “Toxic”. For the same compound, the “NOAEL for developmental toxicity” value (rabbits) was at least 250 mg/kg bw/day, the “NOAEL for maternal toxicity” value (rabbits) was 25 mg/kg bw/day and the “NOAEL for maternal toxicity” value (rats) was > 250 mg/kg bw/day and 300 mg/kg bw/day.

In the case of `CN(CCOc1ccc(CC2SC(=O)NC2=O)cc1)c1ccccn1` (centres unmarked) [Rosiglitazone], the “Exposure risk (DART risk classification)” value ([1]; Pharmaceutical, 4 mg/daily, oral, ref Supplementary Data Sheet 1) is given as “High Risk”, the “DART Hazard Call” value [3] is given as “Toxic” and the “CDR fold difference to non-pregnant” value ([2]; female, human, in vivo) is given as 0.19. The “95% percentile (Conc-dose-ratio)” value ([2]; female, human, in vivo, po) was 0.0661, the “Fold Difference to non-pregnant” value ([2]; female, human, in vivo, po) was 0.19 and the “Mean Conc-dose -ratio” value ([2]; female, human, in vivo, po) was 0.04 uM/(mg/day]. The “CDR fold difference to non-pregnant” value ([2]; human, in vivo) was 1.00, the “95% percentile (Conc-dose-ratio)” value ([2]; human, in vivo, po) was 0.89 and the “Fold Difference to non-pregnant” value ([2]; human, in vivo, po) was 1.00. For the same compound, the “Mean Conc-dose -ratio” value ([2]; human, in vivo, po) was 0.21 uM/(mg/day].

For `CCOC(=O)c1ccccc1C(=O)OCC` [Diethyl phthalate (DEP), Diethyl phthalate], the “Exposure risk (DART risk classification)” value ([1]; Cosmetic, aggregate (max 10%), dermal, ref Supplementary Data Sheet 1) is listed as “Low Risk”.

— publication PMC12256496, “An advancement in developmental and reproductive toxicity (DART) risk assessment: evaluation of a bioactivity and exposure-based NAM toolbox” (Frontiers in Toxicology, 2025)
